Test results: patent US8669260B2, “Ketoconazole-derivative antagonist of human pregnane X receptor and uses thereof” (priority 2008, dated 2014)

Key:
[1] = system: PXR target genes in SKOV-3 cells
SKOV-3 cells = conditions: MTT; 48-96 hr exposure (T1317: 48 hours, normalized to GSK1385)
HepG2 cells = conditions: 24 hours incubation, especially at 50 μM; data not shown

Row | Compound | transcription of MDR-1 or MRP-2 genes [1] | SKOV-3 cell survival (in words) (SKOV-3 cells) | cytotoxicity in HepG2 cells (in words) (HepG2 cells)
1 | rifampicin | no increased transcription | significant increase in cell survival | –
2 | CC(=O)N1CCN(c2ccc(OCC3COC(Cn4ccnc4)(c4ccc(Cl)cc4Cl)O3)cc2)CC1 (stereo not drawn) [Ketoconazole, ketoconazole] | – | – | toxic
